Laboratory results from publication PMC8018780, “Two peptides targeting endothelial receptors are internalized into murine brain endothelial cells” (PLoS ONE, 2021).

Assays:
bEnd.3 cells [1] = conditions: literature, mean (SD); cited from earlier work
Excerpt: Using solid-phase synthesis, we conjugated the photostable TAMRA fluorophore at either the N- or C-terminus of MTfp and GYR, respectively. By doing so, we could track the live uptake of these relevant brain-targeting peptides in vitro. Previously only quantitative assays have documented their improved BBB translocation, but fluorescence microscopy enables studies on uptake dynamics as well as intracellular localization and sorting. One observation made was that a significant fraction of the peptide was co-localized with the endo-lysosomal system. Ideally, the peptide s ...

bEnd.3 cells [2] = assay: Paracellular permeability of 4 kDa dextran (Transwell); format: in vitro ADME, mouse
Procedure: The following equations [27] were used to calculate the permeability coefficient: Papp[cm/s]=B/T⋅vb/A⋅t⋅60 (1) Where Papp is the apparent permeability, B is the relative fluorescence unit (RFU) at time t, T is the top chamber RFU at time 0 (constant), Vb is the volume of the bottom channel [ml], A is the cross-section area of the membrane [cm^2], and t is the time [min].
The final endothelial permeability (Pe) was calculated based Eq (2): 1/Pe=1/Papp, bEnd.3+filter−1/Papp, filter (2) Where Papp, bEnd.3+filter is the apparent permeability of the bEnd.3 model (cells + filter), and Papp, filter is the apparent permeability of the collagen-coated blank porous membrane.
The paracellular permeability of fluorescein isothiocyanate (FITC) labeled 4 kDa dextran (FD4, Sigma Aldrich) to determine the tightness of our bEnd.3 model.
The bEnd.3 cells were cultured with rat astrocytes as described above. On the day of the experiment, the inserts were transferred to a new astrocyte-free plate, and the medium was changed on both the apical and basolateral sides. To initiate the permeability experiment and avoid the temporary disruption of the barrier, 50 μL medium was removed from the apical side and 50 μL 200 μM working solution of 4kDa FITC-dextran was added to the upper well, i.e. the apical well had 500 μl 10 μM 4kDa FITC-dextran. In every 15 min for a period of 60 min, starting from 0 min, 100 μl medium was removed from the basolateral side. At the final time point, 100 μl medium was also removed from the apical compartment. The fluorescence intensity of the sample was read by a CLARIOstar® Plus microplate reader (BMG Labtech) (λExc = 485 nm, λEm = 515 nm, Bandwidth = 15 and 20 nm, respectively), and the paracellular permeability was calculated according to Eqs (1) and (2). The permeability experiments were repeated three times in technical triplicates, and the data are represented as mean (SD).

## FITC-Dextran
bEnd.3 cells [1]
  Mean Pe: 2.91 (0.43) x 10^−6 cm/s
bEnd.3 cells [2]; bEnd.3 cultured with rat astrocytes, polyester Transwell 0.4 μm, 10 μM apical, 60 min, fluorescence Ex 485/Em 515 nm, mean (SD) of three independent experiments with triplicates
  Papp, bEnd.3+F (apparent permeability through bEnd.3 grown on filter): 3.32 (0.48) x 10^−6 cm/s
bEnd.3 cells [2]; cell-free collagen-coated polyester Transwell filter, 0.4 μm pores, 10 μM apical, sampled every 15 min for 60 min, fluorescence Ex 485/Em 515 nm, mean (SD) of three independent experiments with triplicates
  Papp,F (apparent permeability through filter): 8.49 (1.90) x 10^−6 cm/s
bEnd.3 cells [2]; cell-free collagen-coated polyester filter
  Papp across empty filter relative to Papp of MTfp: 1.45 times
bEnd.3 cells [2]; paracellular marker, 1/Pe = 1/Papp,bEnd.3+filter − 1/Papp,filter, 10 μM apical, 60 min, mean (SD) of three independent experiments with triplicates
  Pe ("real" endothelial permeability): 5.79 (0.44) x 10^−6 cm/s
